Reference: ChEMBL document CHEMBL1137244, “Ureas with histamine H3-antagonist receptor activity--a new scaffold discovered by lead-hopping from cinnamic acid amides” (Bioorg Med Chem Lett, 2006)

Sequences of proteins named here, by UniProt entry; tags and fusion partners are left off. A change or cut given only in a name is not applied to a line headed by its entry.
UniProt Q12809: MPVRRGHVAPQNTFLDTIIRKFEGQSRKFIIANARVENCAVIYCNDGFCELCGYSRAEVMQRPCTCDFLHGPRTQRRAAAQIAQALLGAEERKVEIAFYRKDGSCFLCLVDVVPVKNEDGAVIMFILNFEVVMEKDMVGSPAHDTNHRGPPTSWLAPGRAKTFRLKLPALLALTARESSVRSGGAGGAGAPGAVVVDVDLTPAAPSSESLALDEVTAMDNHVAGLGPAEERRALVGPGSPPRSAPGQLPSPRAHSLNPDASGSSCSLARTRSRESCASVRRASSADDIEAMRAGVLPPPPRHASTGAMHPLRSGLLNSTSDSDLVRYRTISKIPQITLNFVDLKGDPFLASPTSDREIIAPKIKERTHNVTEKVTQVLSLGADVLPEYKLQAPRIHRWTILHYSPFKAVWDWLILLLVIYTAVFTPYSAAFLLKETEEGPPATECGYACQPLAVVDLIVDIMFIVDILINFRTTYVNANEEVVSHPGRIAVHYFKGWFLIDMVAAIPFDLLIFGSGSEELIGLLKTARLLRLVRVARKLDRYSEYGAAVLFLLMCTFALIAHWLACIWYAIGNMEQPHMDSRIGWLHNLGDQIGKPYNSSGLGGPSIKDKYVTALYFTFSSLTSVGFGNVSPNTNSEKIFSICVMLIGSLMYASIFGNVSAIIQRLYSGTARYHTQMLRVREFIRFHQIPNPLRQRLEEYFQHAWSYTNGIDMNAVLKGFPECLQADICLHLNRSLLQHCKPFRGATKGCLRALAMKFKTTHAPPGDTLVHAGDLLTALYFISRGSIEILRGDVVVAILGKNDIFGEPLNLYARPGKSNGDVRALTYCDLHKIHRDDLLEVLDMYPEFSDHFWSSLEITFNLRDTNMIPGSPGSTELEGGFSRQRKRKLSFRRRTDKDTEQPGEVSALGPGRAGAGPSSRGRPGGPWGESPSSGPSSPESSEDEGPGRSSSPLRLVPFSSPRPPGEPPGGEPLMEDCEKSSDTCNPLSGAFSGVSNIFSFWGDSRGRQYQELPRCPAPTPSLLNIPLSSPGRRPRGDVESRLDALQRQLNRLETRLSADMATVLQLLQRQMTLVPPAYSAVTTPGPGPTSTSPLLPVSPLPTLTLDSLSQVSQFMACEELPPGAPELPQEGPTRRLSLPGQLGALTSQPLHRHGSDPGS

Target: Voltage-gated inwardly rectifying potassium channel KCNH2 (Homo sapiens, UniProt Q12809)

For `CC(C)COCC(CN(Cc1ccccc1)c1ccccc1)N1CCCC1` (stereo unspecified) [BEPRIDIL], the Ki was 444 nM.
